# In published antibiotic growth screens (doi:10.1038/s41589-023-01349-8):
# The list shows a part of the results.
# Tested on: A. baumannii ATCC 17978
# Test: relative growth (fraction of control); higher = less inhibition
# Conditions: 50 µM
row,Structure (SMILES),relative growth
1,O=C([O-])c1ccccc1-c1c2cc(I)c(=O)c(I)c-2oc2c(I)c([O-])c(I)cc12.[Na+].[Na+],1.04
2,CC(C)C(=O)Nc1cccc(Cl)c1,0.878
3,O=C(CN1CCOCC1)N[C@@H]1CC[C@@H](CCNC(=O)C2CCCCC2)O[C@@H]1CO,1.01
4,Cc1nccn1CCc1nc(N)nc(N)n1,1.04
5,C=CCOC(=O)[C@@H]1[C@H]2C(=O)O[C@H](c3ccccc3)[C@H](c3ccccc3)N2[C@H](c2ccc(OCCOC(=O)[C@H]3C[C@H]4C(=O)N[C@@H](CCCC[N+](C)(C)C)C(=O)N4[C@H]3c3ccc(O)cc3)cc2)[C@@]12C(=O)Nc1ccc(I)cc12,1.22
6,COCCNC(=O)C[C@H]1CC[C@H]2[C@@H](COC[C@H](O)CN2S(=O)(=O)c2ccccc2C)O1,0.841
7,O=C(OC[C@H]1O[C@@H](OC(=O)c2cc(O)c(O)c(OC(=O)c3cc(O)c(O)c(O)c3)c2)[C@H](OC(=O)c2cc(O)c(O)c(OC(=O)c3cc(O)c(O)c(O)c3)c2)[C@@H](OC(=O)c2cc(O)c(O)c(OC(=O)c3cc(O)c(O)c(O)c3)c2)[C@@H]1OC(=O)c1cc(O)c(O)c(OC(=O)c2cc(O)c(O)c(O)c2)c1)c1cc(O)c(O)c(OC(=O)c2cc(O)c(O)c(O)c2)c1,1.08
8,C[C@H](CO)N1C[C@H](C)[C@@H](CN(C)C(=O)Cc2ccccn2)Oc2cc(C#C[C@@H](C)O)ccc2S1(=O)=O,0.941
9,COc1cccc(S(=O)(=O)N2C[C@@H](O)COC[C@H]3O[C@@H](CC(=O)N4CCN(C)CC4)CC[C@@H]32)c1,0.986
10,COCC(=O)Nc1ccc2c(c1)[C@@H]1C[C@H](CC(=O)N3CCOCC3)O[C@H](CO)[C@@H]1O2,1.1
11,COCCNC(=O)c1cn(C)nc1OC,1.09
12,NS(=O)(=O)c1ccc(NC(=O)C2CC2)cc1,0.83
13,COCC(=O)N(C)C[C@H]1Oc2cc(C#Cc3ccccc3)ccc2S(=O)(=O)N([C@@H](C)CO)C[C@@H]1C,0.835
14,CC1(C)S[C@@H]2[C@H](NC(=O)[C@H](N)c3ccc(O)cc3)C(=O)N2[C@H]1C(=O)O,1.08
15,CO[C@H]1CN(C)C(=O)c2cc(NS(C)(=O)=O)ccc2OC[C@@H](C)N(C(=O)C2CCCCC2)C[C@H]1C,1.01
16,CC(C)=CCC/C(C)=C/CC1=C(C)C(=O)c2ccccc2C1=O,0.926
17,C=C1C(=O)O[C@@H]2[C@H]3C(=CO[C@@H]4O[C@H](CO)[C@@H](O)[C@H](O)[C@H]4O)CC(=O)C3=C(C)CC[C@@H]12,1.02
18,Cl.Cl.NCCCCN,1.03
19,NCc1ccc(-c2nc3ccccc3o2)cc1,0.844
20,CC(C)(C)OC(=O)N[C@H]1CCC(=O)NC1=O,0.995
21,O=C(C[C@@H]1CC[C@H](NS(=O)(=O)c2ccccc2)[C@@H](CO)O1)NCc1ccncn1,1.03
22,Cn1nc(C(=O)O)c2ccccc2c1=O,1.03

row,Structure (SMILES),relative growth
1,CO[C@H]1CN(C)C(=O)c2ccc(NC(=O)Nc3cccc(Cl)c3)cc2OC[C@@H](C)N(C(=O)Nc2c(C)noc2C)C[C@H]1C,0.93
2,C[C@]1(C(=O)NCCN2CCOCC2)c2ccccc2C(=O)N(Cc2cc(C(F)(F)F)cc(C(F)(F)F)c2)[C@H]1c1ccc(CO)cc1,0.967
3,COc1ccc(S(=O)(=O)N2C[C@H](O)COC[C@H]3O[C@H](CC(=O)NCCCN4CCOCC4)CC[C@@H]32)cc1,1.05
4,CC1(C)CO[C@@H](CC(=O)O)CN1,0.85
5,COc1cccc(S(=O)(=O)N2C[C@H](O)COC[C@H]3O[C@H](CC(=O)NCCCN4CCOCC4)CC[C@@H]32)c1,0.951
6,Cc1cc(Cl)cc2sc(N(Cc3ccccn3)C(=O)c3ccc(S(=O)(=O)N4CCCC4)cc3)nc12,1.08
7,CC(C)Cn1c(=O)[nH]c2c1c(=O)n(C)c(=O)n2C,0.892
8,O=C(C[C@H]1C=C[C@H](NC(=O)C2CC2)[C@@H](CO)O1)NCCCN1CCOCC1,0.971
9,Cc1ccc2c(Br)cc(Br)c(OC(=O)c3ccccc3)c2n1,1.42
10,Cc1cccc(C(=O)O)c1O,1.06
11,CNS(=O)(=O)c1ccc2[nH]c(=O)[nH]c2c1,0.896
12,CC(C)n1c(/C=C/[C@@H](O)C[C@@H](O)CC(=O)[O-])c(-c2ccc(F)cc2)c2ccccc21.[Na+],1.05
13,CCCCCCCCCc1ccc(OCCOCCOCCOCCOCCOCCOCCOCCOCCO)cc1,0.895
14,CC(C)c1ccc2oc3nc(N)c(C(=O)O)cc3c(=O)c2c1,1.03
15,Cc1cccc(=O)n1CCCCN,1.01
16,Cc1ccc(S(=O)(=O)N[C@@H]2CC[C@@H](CCNC(=O)CN3CCOCC3)O[C@H]2CO)cc1,1.16
17,COc1ccc(N2CCn3c2nnc(C(=O)NCCO)c3=O)cc1,0.94
18,COC(=O)Nc1nc2cc(C(=O)c3ccccc3)ccc2[nH]1,0.999
19,C[C@H](CO)N1C[C@H](C)[C@@H](CN(C)C(=O)c2ccc(N3CCN(C)CC3)cc2)OCc2cnnn2CCCC1=O,0.981
20,COCC(=O)Nc1ccc2c(c1)C(=O)N(C)[C@@H]1CC[C@@H](CC(=O)NCc3ccc(OC)cc3)O[C@@H]1CO2,0.967
21,COc1cccc(C#Cc2ccc3c(c2)O[C@@H](CN(C)C(=O)CN2CCOCC2)[C@H](C)CN([C@H](C)CO)S3(=O)=O)c1,0.795
22,Cc1cnc2c(c1N1CCOCC1)c(=O)n(C)c(=O)n2C,1.02

row,Structure (SMILES),relative growth
1,CC(N)CCCC(C)(C)O.Cl (stereo not given),0.886
2,CCCCCCc1ccc(O)cc1O.Nc1c2ccccc2nc2ccccc12,0.835
3,CC(C)C[C@@H]1NC(=O)[C@@H]2C[C@H](C(=O)NCCCC[N+](C)(C)C)[C@H](c3cccc(OCCO)c3)N2C1=O,1.1
4,Cc1cc2c(cc1S(N)(=O)=O)S(=O)(=O)CCC2,1.04
5,COc1ccc(COC[C@]23NC(=O)N[C@H](c4ccccc4O2)[C@H]3COC(=O)NCCCCCC(=O)NO)cc1,1.12
6,C/C=C\C1=C(C(=O)O)N2C(=O)[C@H](NC(=O)[C@@H](N)c3ccc(O)cc3)[C@@H]2SC1,0.9
7,O=C(C[C@H]1CC[C@H]2[C@@H](COC[C@@H](O)CN2S(=O)(=O)c2ccc(Cl)cc2)O1)NCCN1CCCCC1,0.889
8,O=C(C[C@H]1C=C[C@H](NC(=O)CN2CCOCC2)[C@H](CO)O1)NC1CCCCC1,0.986
9,CC(CCC(=O)O)[C@H]1CCC2C3C(=O)C[C@@H]4CC(=O)CC[C@]4(C)C3CC(=O)[C@@]21C (stereo not given in full),0.967
10,Brc1ccc(-c2ccc(C3CCCCC3)cn2)cc1,1.05
11,CC(C)/C=C1\CC/C(=C\c2ccc(C(F)(F)F)cc2)C1=O,0.855
12,C[C@@H]1CN([C@H](C)CO)S(=O)(=O)c2ccc(C#C[C@@H](C)O)cc2O[C@H]1CN(C)C(=O)c1ccccc1,1.07
13,CN(C)CCC(c1ccccc1)c1ccccn1.O=C(O)/C=C\C(=O)O (stereo not given),0.98
14,O=S(=O)([O-])CCCS(=O)(=O)[O-].[Na+].[Na+],1.07
15,O=C(O)c1csc2c1CCCCC2,0.889
16,O=C(/C=C(O)/C=C/c1ccc(O)c(O)c1)/C=C/c1ccc(O)c(O)c1,0.959
17,COc1cccc(-c2ccc3c(c2)O[C@@H](CN(C)C(=O)C2CCC2)[C@@H](C)CN([C@H](C)CO)S3(=O)=O)c1,0.713
18,COc1cc(OC)c(C(C)=O)c(O)c1C,1.24
19,CN(C)CC(=O)N[C@H]1C=C[C@@H](CC(=O)NCCN2CCCCC2)O[C@H]1CO,0.862
20,O=C(NCCN1CCOCC1)[C@@]1(CCS(=O)(=O)c2ccccc2)N=C(c2ccc(OCCCO)cc2)O[C@H]1c1ccccc1,0.951
21,Nc1ccccc1C(=O)N[C@H]1CCCCNC1=O,1.01
22,COC(=O)[C@@H](C)N(C#N)c1nc(C)cc(C)n1,1.07

row,Structure (SMILES),relative growth
1,COc1ccc(S(=O)(=O)N[C@@H]2C=C[C@H](CC(=O)N3CCN(c4ccccc4)CC3)O[C@H]2CO)cc1,0.982
2,C=CC[N+]1([C@H]2CC3C4CCC5C[C@H](O)[C@@H](N6CCOCC6)C[C@]5(C)C4CC[C@]3(C)[C@H]2OC(C)=O)CCCC1.[Br-] (stereo not given in full),1.23
3,O=C(NCC[C@H]1CC[C@H](NS(=O)(=O)c2cccc(F)c2)[C@H](CO)O1)C1CC1,1.1
4,Cc1cc(O)c(C=O)c2c1C(=O)Oc1c(C)c(O)c3c(c1O2)C(O)OC3=O (stereo not given),1.06
5,O=C(CN1CCOCC1)N[C@@H]1CC[C@H](CCn2cc(C3CC3)nn2)O[C@H]1CO,1.06
6,Cc1ccc(Oc2nnc(-c3cccs3)c3ccccc23)cc1,1.05
7,COc1ccc(CC[C@@H](OC(=O)[C@H]2CCCCN2C(=O)Cc2ccccc2)c2cccc(OCC(=O)O)c2)cc1OC,0.902
8,Nc1nonc1C(=O)N1CCCCC1,1.05
9,COc1ccc([Si](C)(C)[C@@H]2[C@@H](CC(=O)N(CCO)Cc3ccccc3)O[C@]3(C(=O)N(C)c4c(Br)cc(C)cc43)[C@H]2C)cc1,0.718
10,CN(C)CC(=O)N[C@H]1C=C[C@H](CC(=O)O)O[C@@H]1CO,0.929
11,O=C(C[C@@H]1CC[C@@H]2[C@H](COC[C@@H](O)CN2C(=O)c2ccccc2)O1)NCCCN1CCOCC1,0.989
12,CC[C@H]1[C@H](O)C2=C(CC3C(=O)OC(=O)/C3=C/[C@H]1CC)C(=O)OC2=O (stereo not given in full),0.94
13,C[C@H](O)C#Cc1cnc2c(c1)C(=O)N([C@H](C)CO)C[C@H](C)[C@H](CN(C)C(=O)CN1CCOCC1)O2,1.07
14,CC(C)(C)OC(=O)N1CCNC(=O)C1,0.971
15,O=c1ccc2ccc(O)cc2o1,0.954
16,O=C(O)CCCCc1ccc(F)cc1,1.03
17,CN(C)/N=N/c1[nH]cnc1C(N)=O,0.155
18,O=C(O)c1cccnc1Nc1cccc(C(F)(F)F)c1,1.07
19,O=C(/C=C/c1cccc(-c2cn(-c3cccc(C(=O)N4CCC5(CC4)C(=O)NCN5c4ccccc4)c3)nn2)c1)NO,0.833
